Some of these compounds have results that are not shown, active ones among them. Results filed as inconclusive are left out. Calls of active or inactive are those of the source.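 How the source made its calls: active means fitted activation curve crossing 40% at a concentration no higher than the sample's top valid tested dose; inconclusive means flat fitted curve at 30% to 70% activation, or poor curve fit; inactive means signal decrease, flat curve within 30%, or the rest.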
System: NIH3T3-HGL HSF-1 response element luciferase, 48 h
Test: sustained heat shock response element induction – cell-based, mouse, luciferase, cherry-pick, dose, confirmation (AID 602296);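 further: test compounds applied by themselves with no MG132 co-treatment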

With `COc1cc(C(=O)NCC2(N(C)C)CCCCC2)c([N+](=O)[O-])cc1OC` the AC40 was inactive: > 26 µM.
